Legend:
[1] = target: T1, C-C chemokine receptor type 2 (Homo sapiens, UniProt P41597); test: Displacement of [125I]MCP-1 from CCR2 in human THP1 cells; type: cell-based, THP-1
Procedure, shortened: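 Competition binding against [¹²⁵I]MCP-1 using THP-1 cells in place of peripheral blood mononuclear cells. IC50 typically given as the mean of two determinations.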

Amino acid sequences for entries named in this document (tags omitted). A change or cut given only in a name is not applied to a line headed by its entry.
UniProt P41597: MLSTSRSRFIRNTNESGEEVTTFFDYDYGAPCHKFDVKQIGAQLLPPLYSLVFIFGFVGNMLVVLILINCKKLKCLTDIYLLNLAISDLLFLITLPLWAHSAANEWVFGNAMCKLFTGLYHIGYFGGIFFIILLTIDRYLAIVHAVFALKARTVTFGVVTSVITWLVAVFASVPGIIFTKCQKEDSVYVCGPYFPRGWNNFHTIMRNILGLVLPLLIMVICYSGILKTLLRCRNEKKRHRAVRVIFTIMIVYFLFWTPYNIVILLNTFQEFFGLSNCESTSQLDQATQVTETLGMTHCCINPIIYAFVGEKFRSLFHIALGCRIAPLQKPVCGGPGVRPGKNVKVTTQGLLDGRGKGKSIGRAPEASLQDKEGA

[2] = target: T1, C-C chemokine receptor type 2; test: Displacement of [125I]MCP-1 from CCR2 in human PMBC

N[C@@H]1CC[C@H](NC(=O)CNC(=O)c2cc(C(F)(F)F)ccc2NC(=O)N2CCC2)C[C@@H]1CS(=O)(=O)c1ccccc1 (racemic) was tested, and the IC50 [1] was 6.6 nM and the IC50 [2] was 1.4 nM.
